By UniProt entry, the sequences of proteins in these tests, tags left out. Residues count along the entry.
UniProt P04629, 33-796 limits assumed: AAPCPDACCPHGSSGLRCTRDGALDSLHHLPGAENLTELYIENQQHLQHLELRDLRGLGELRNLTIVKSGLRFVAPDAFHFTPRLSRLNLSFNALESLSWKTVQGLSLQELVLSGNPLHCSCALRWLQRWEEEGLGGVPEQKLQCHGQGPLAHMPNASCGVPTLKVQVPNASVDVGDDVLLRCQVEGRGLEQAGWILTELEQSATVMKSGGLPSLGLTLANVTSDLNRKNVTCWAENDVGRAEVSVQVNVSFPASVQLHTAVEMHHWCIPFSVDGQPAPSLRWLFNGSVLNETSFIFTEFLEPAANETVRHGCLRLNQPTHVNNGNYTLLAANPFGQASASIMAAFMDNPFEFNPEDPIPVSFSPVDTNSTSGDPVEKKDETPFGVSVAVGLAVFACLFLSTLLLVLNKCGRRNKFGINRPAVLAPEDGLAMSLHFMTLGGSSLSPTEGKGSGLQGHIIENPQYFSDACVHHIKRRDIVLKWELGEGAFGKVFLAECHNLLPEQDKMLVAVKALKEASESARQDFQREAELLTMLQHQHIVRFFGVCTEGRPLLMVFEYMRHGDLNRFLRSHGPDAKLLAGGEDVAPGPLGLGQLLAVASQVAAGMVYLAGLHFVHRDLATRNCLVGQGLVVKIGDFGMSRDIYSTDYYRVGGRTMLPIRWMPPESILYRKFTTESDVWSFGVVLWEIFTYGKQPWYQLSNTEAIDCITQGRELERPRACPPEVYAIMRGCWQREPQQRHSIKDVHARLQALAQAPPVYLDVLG

In patent US9862707B2, “TrkA kinase inhibitors, compositions and methods thereof” (Merck Sharp & Dohme Corp., priority 2014, dated 2018):

Target: human TrkA receptor (Homo sapiens (Human), UniProt P04629)
Assay: TrkA functional activity, DiscoverX PathHunter assay
Format: cell-based
Conditions: U2OS cells expressing human TrkA-PK, Shc1-EA and p75NTR; compound 1 h, then NGF at ~80% of maximal response for 3 h; luminescence

CC(C)(O)c1ccc2nn(-c3ccccc3)c(NC(=O)c3cc(-c4ncccn4)c(C(F)(F)F)cc3F)c2c1 [Compound 44, 2-Fluoro-N-(5-(2-hydroxypropan-2-yl)-2-phenyl-2H-indazol-3-yl)-5-(pyrimidin-2-yl)-4-(trifluoromethyl)benzamide]
IC50: 4.6 nM
